This is a selection; strong and weak results do not stand in their true shares. The source made the active and inactive calls.

Drawing on PubChem BioAssay AID2805 (Sanford-Burnham Center for Chemical Genomics, 2010), this text covers activation factor for 31 compounds.

This experiment concerns intestinal alkaline phosphatase [Mus musculus]. In words: activators of mouse IAP, primary screen, biochemical, luminescence, uHTS (AID 2805). Particulars: muIAP, CDP-Star luminescence, 30 min; at 10 µM; active compounds read high; 1 = vehicle-only enzyme signal, 0 = enzyme-free wells. The method, boiled down: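 also added = chemiluminescent substrate CDP-Star | test system = mouse IAP enzyme | signal = chemiluminescence readout | compound = DMSO-dissolved test compounds | incubation = 30 min at room temperature | benchmarks = DMSO wells, no-enzyme wells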
Regarding `O=[N+]([O-])c1cc([N+](=O)[O-])c(NCC2CCS(=O)(=O)C2)c([N+](=O)[O-])c1` (stereo unspecified), the activation factor was inactive: 0.888.

On to `COc1ccc(OP(C)(=O)Nc2cccc(Br)c2)cc1` (stereo unspecified), for which the activation factor was inactive: 0.961.

Take `COc1ccc(NP(C)(=O)Oc2ccccc2OC)cc1` (stereo unspecified): the activation factor was inactive: 0.911.

In the case of `CN(C)CCOC(=O)C(O)(c1ccccc1)C1CCCCC1` (stereo unspecified), the activation factor was inactive: 1.14.

For the compound `Nc1ccc2c(ccc3cccnc32)n1.O=[N+]([O-])c1cc([N+](=O)[O-])c(O)c([N+](=O)[O-])c1`, the activation factor was inactive: 0.94.

Regarding `CP(=O)(OC12CC3CC(CC(C3)C1)C2)OC12CC3CC(CC(C3)C1)C2`, the activation factor was inactive: 0.824.

On to `CCOC(=O)c1ccc(NP(C)(=O)Oc2ccc(Cl)cc2)cc1` (stereo unspecified), for which the activation factor was inactive: 1.07.

Consider `CP(=O)(Nc1ccc(Cl)cc1)Oc1ccc(F)cc1` (stereo unspecified), for which the activation factor was inactive: 1.03.

Regarding `COc1ccccc1OP(C)(=O)Nc1ccccc1Br` (stereo unspecified), the activation factor was inactive: 0.961.

Take `CC(C)(C)c1ccc(OP(C)(=O)O)cc1`: the activation factor is inactive: 0.995.

For `CN(C)C(=O)c1c([N+](=O)[O-])cc([N+](=O)[O-])cc1[N+](=O)[O-]`, the activation factor was inactive: 0.956.

`COc1ccc(OP(C)(=O)Nc2ccc(Br)cc2)cc1` (stereo unspecified): the activation factor is inactive: 1.09.

Consider `CCN(CC)CC(O)COC(=O)C(O)(c1ccccc1)C1CCCCC1` (stereo unspecified), for which the activation factor is inactive: 1.01.

As for `CCc1ccc(OP(C)(=O)Nc2cccnc2)cc1` (stereo unspecified), the activation factor is inactive: 1.07.

Consider `CP(=O)(Oc1ccccc1)N1CCOC1=O` (stereo unspecified), for which the activation factor is inactive: 0.915.

Turning to `O=C(OCCCN1CCCC1)C(O)(c1ccccc1)C1CCCCC1` (stereo unspecified), the activation factor was inactive: 0.901.

Turning to `COc1ccccc1OP(C)(=O)Nc1c(C)n(C)n(-c2ccccc2)c1=O` (stereo unspecified), the activation factor was inactive: 0.919.

As to `Cc1c(NP(C)(=O)Oc2ccc(C(C)C)cc2)c(=O)n(-c2ccccc2)n1C` (stereo unspecified), the activation factor was inactive: 0.978.

As for `O=[N+]([O-])c1cc([N+](=O)[O-])c(Nc2ccccn2)c([N+](=O)[O-])c1`, the activation factor is inactive: 0.721.

For `CCc1ccc(OP(C)(=O)O)cc1`, the activation factor is inactive: 0.986.

For `COc1ccccc1OP(C)(=O)Nc1ccc(C)cc1C` (stereo unspecified), the activation factor is inactive: 1.03.

With `CP(=O)(Nc1ccccn1)Oc1ccccc1` (stereo unspecified), the activation factor was inactive: 0.944.

`COc1ccccc1OP(C)(=O)Nc1ccc(Br)cc1` (stereo unspecified): the activation factor is inactive: 1.

Take `CN(C)CCOC(=O)C(O)(c1ccccc1)C1CCCC1` (stereo unspecified): the activation factor is inactive: 0.963.

For the compound `COc1ccc(OP(C)(=O)Nc2ccccn2)cc1` (stereo unspecified), the activation factor is inactive: 1.

`Cc1nc2ccc3ccccc3c2o1.O=[N+]([O-])c1cc([N+](=O)[O-])c(O)c([N+](=O)[O-])c1`: the activation factor was inactive: 0.948.

As for `CP(=O)(Nc1ccc(Cl)cc1Cl)Oc1ccccc1` (stereo unspecified), the activation factor was inactive: 1.19.

In the case of `CP(=O)(OCCOc1ccccc1)OCCOc1ccccc1`, the activation factor is inactive: 1.12.

In the case of `Cc1cc(C)cc(OP(C)(=O)Nc2cccc(C(F)(F)F)c2)c1` (stereo unspecified), the activation factor is inactive: 0.998.

Turning to `COc1ccc(OP(C)(=O)Nc2ccccc2Br)cc1` (stereo unspecified), the activation factor is inactive: 1.08.

Turning to `COc1ccccc1OP(C)(=O)Nc1ccc(C)c(C)c1` (stereo unspecified), the activation factor was inactive: 1.01.
